This is a selection; strong and weak results do not stand in their true shares. Some results for these compounds are left out of this collection, so the calls shown say nothing about other tests. Results filed as inconclusive are left out. Calls of active or inactive are those of the source. Calls come from the whole dose curve; as a rule, active = well fitted inhibition curve with a large enough effect; inconclusive = small, poorly fitted or top-dose-only effect, or effect the other way; inactive = flat fitted curve, though single readings scatter.
% is set by controls: 0 for no effect and ±100 for the full control effect.

Protein sequences, listed by entry. Tags and fused reporters are not part of them. Residues count along the entry.
UniProt P10636, 561-689 P618L limits assumed: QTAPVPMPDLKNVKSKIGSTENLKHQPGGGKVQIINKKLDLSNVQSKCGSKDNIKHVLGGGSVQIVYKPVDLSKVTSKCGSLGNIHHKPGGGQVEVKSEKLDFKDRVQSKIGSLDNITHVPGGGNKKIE

The experiment deals with Microtubule-associated protein tau (Homo sapiens) (UniProt P10636). The experiment can be described thus: qHTS for Inhibitors of Tau Fibril Formation, Fluorescence Polarization. Note: nearly all actives have a fitted effect of over 55% in size. Particulars: K18 P301L tau heparin fibrillization, Alexa594 FP, 6 h; at 57.7 µM (top of the series). An excerpt:
NIH Molecular Libraries Probe Production Network [MLPCN]
NIH Chemical Genomics Center [NCGC]
Assay Provider: Carlo Ballatore, University of Pennsylvania
The microtubule-associated protein tau is an abundant protein in the axons of neurons that stabilizes microtubules. With its ability to modulate microtubule dynamics, tau contributes directly or indirectly, to key structural and regulatory cellular functions. Particularly important is the influence tau exerts on axonal transport, which allows signaling molecules, trophic factors and other essential cellular constituents to travel along the axons. Under pathological conditions, tau becomes sequestered into insoluble aggregates called neurofibrillary tangles. This phenomenon is believed to have pathological consequences by promoting axonal transport deficits that ultimately lead to synaptic dysfunction and neuronal loss. To identify inhibitors of tau aggregation, a heparin-induced tau fibril formation assay was used that employed a recombinantly expressed fragment of tau, K18 (Q242-E372), bearing a P301L mutation (Gustke et al. 1994; Hong et al. 1998).
Gustke, N., B. Trinczek, et al. (1994). "Domains of tau protein and interactions with microtubules." Biochemistry 33(32): 9511-22.
Hong, M., V. Zhukareva, et al. (1998).
Li, W. and V. M. Lee (2006). "Characterization of two VQIXXK motifs for tau fibrillization in vitro." Biochemistry 45(51): 15692-701.
von Bergen, M., S. Barghorn, et al. (2001). "Mutations of tau protein in frontotemporal dementia promote aggregation of paired helical filaments by enhancing local beta-structure." J Biol Chem 276(51): 48165-74.
NCGC Assay Protocol Summary:
For screening, 2 uL/well human K18 P301L (15 uM unlabeled and 0.24 uM Alexa 594-labeled tau final concentrations) in reagent buffer (100 mM sodium acetate pH 7) was dispensed into black solid 1536-well plates (Grenier) using a solenoid-based dispenser. Following transfer of 23 nL compound or DMSO vehicle by a pin tool, 2 uL/well heparin (20 uM final concentration) in reagent buffer was added and the plate centrifuged 15 s at 1000 RPM. Plates were incubated 6 hr at 37 C and then 1 uL/well ThT (30 uM final concentration) was added. After a 1 hr ambient incubation, the plates were read by an Envision (Perkin Elmer) to monitor Alexa 594 FP (555 nm excitation and 632 nm emission).
Keywords: NIH Roadmap, MLPCN, MLI, MLSMR, NCGC, qHTS, tau, tauopathies, Alzheimer's disease, fibril, neurodegeneration, aggregation
In general terms: In qHTS, concentration-response curves come from the screen itself.
Turning to `O=C(NCC1(N2CCCCC2)CCCCC1)c1cc([N+](=O)[O-])ccc1Cl`, the activity, negative = inhibition was inactive: 2.86%. Turning to `CN(C)C1(CNC(=O)c2ccccc2F)CCCCC1`, the activity, negative = inhibition is inactive: 2.44%. For the compound `CN(C)C1(CNC(=O)c2cccc(Cl)c2)CCCCC1`, the activity, negative = inhibition was inactive: -1.55%.

For the compound `CC(C)N1C(=O)CC2(CCN(CCOC(=O)C(O)(c3ccccc3)c3ccccc3)CC2)C1=O`, the activity, negative = inhibition is inactive: -5.92%.

For the compound `CCCCOc1ccccc1C(=O)NCC1(N(C)C)CCCCC1`, the activity, negative = inhibition is inactive: -9.78%. On to `CN(C)C1CCCC1OC(=O)C(O)(c1ccccc1)c1ccccc1` (stereo unspecified), for which the activity, negative = inhibition is inactive: 4.32%. The result for `CN(C)C1(CNC(=O)c2ccccc2[N+](=O)[O-])CCCCC1` reads inactive: -10%; that for `Cc1ccccc1C(=O)NCC1(N2CCCCC2)CCCCC1`, inactive: -2.6%. As for `CCOc1cccc(C(=O)NCC2(N(C)C)CCCCC2)c1`, the activity, negative = inhibition was inactive: 6.73%. For the compound `CCN1CCCC(OC(=O)C2(O)c3ccccc3C=Cc3ccccc32)C1` (stereo unspecified), the activity, negative = inhibition was inactive: 8.03%.

With `C=CCN1CCN(CCOC(=O)C(O)(c2ccccc2)c2ccccc2)CC1`, the activity, negative = inhibition was inactive: 2.73%.

Consider `COc1cccc(C(=O)NCC2(N3CCCCC3)CCCCC2)c1`, for which the activity, negative = inhibition was inactive: 0.0116%. Next, `COc1ccc(C(=O)NCC2(N(C)C)CCCCC2)cc1Cl`: inactive: 5.86%. As for `CC(C)COc1ccc(C(=O)NCC2(N(C)C)CCCCC2)cc1`, the activity, negative = inhibition is inactive: -0.0311%.

As for `COc1cccc(C(=O)NCC2(N3CCOCC3)CCCCC2)c1`, the activity, negative = inhibition is inactive: -2.84%. The result for `O=C(OC1CN2CCC1CC2)C(CO)(c1ccccc1)c1ccccc1` (stereo unspecified) reads inactive: -5.85%.

Take `CC(C)Oc1ccc(C(=O)NCC2(N(C)C)CCCCC2)cc1`: the activity, negative = inhibition was inactive: 4.72%. The result for `CN(C)c1cccc(C(=O)NCC2(N(C)C)CCCCC2)c1` reads inactive: 2.5%; that for `COc1ccc(Br)c(C(=O)NCC2(N3CCCCC3)CCCCC2)c1`, inactive: -13.1%. With `COc1cc(C(=O)NCC2(N(C)C)CCCCC2)cc(OC)c1OC`, the activity, negative = inhibition is inactive: -0.425%. Take `Cc1cccc(C(=O)NCC2(N(C)C)CCCCC2)c1`: the activity, negative = inhibition is inactive: -4.11%.

Values taken from PubChem BioAssay AID1468 (National Center for Advancing Translational Sciences (NCATS), 2008).
